This note sets out measurements from EP4847489A1, “IMIDAZOLIDINEDIONE HDAC INHIBITOR, AND PREPARATION METHOD THEREFOR AND USE THEREOF” (dated 2026).

Sequences of proteins named here, by UniProt entry; tags and fusion partners are left off.
UniProt Q13547, whole entry: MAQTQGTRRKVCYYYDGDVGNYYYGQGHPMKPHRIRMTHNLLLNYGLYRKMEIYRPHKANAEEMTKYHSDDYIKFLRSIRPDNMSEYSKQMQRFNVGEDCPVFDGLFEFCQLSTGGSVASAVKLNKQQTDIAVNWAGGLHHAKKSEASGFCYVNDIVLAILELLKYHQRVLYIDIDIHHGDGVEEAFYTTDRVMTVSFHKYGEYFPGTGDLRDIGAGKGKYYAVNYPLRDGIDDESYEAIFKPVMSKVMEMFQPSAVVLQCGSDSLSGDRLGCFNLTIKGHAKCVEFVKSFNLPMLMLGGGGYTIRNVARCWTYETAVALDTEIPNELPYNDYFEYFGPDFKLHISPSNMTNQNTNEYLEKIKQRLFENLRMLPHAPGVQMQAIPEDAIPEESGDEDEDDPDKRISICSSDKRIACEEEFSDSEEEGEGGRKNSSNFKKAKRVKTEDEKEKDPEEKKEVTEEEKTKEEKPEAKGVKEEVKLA

Where “and” joins values, the source holds several entries; their conditions need not be identical. Identical values can stand only once.

What is called IC50 is the midpoint of a concentration-inhibition curve.

The target in one test is HDAC1 (Homo sapiens, UniProt Q13547). Put plainly: HDAC inhibition assay (HDAC1 inhibitory activity). To be noted: for IC50: read-out: HDAC1 inhibitory activity (IC50).
Another test concerns A549. Put plainly: Anti-proliferative activity in tumor cell lines, CCK 8 assay (A549). To be noted: read-out: Anti-proliferative activity (IC50, µM) A549, A549 cells, 48 h incubation.
The subject of the next test is DU145. The test is described as follows: Anti-proliferative activity in tumor cell lines, CCK 8 assay (DU145). To be noted: read-out: Anti-proliferative activity (IC50, µM) DU145, DU145 cells, 48 h incubation.

As to `CN1C(=O)N(Cc2ccc(C(=O)Nc3ccc(F)cc3N)cc2)C(=O)/C1=C/c1cccnc1`, on HDAC1, the 50% inhibitory concentration (IC50) was 175 nM.

Take `Nc1cc(F)ccc1NC(=O)c1ccc(CN2C(=O)N/C(=C\c3cccnc3)C2=O)cc1`: at HDAC1, the half-inhibitory concentration (IC50) was 180 nM.

Turning to `COc1ccccc1/C=C1/C(=O)N(CCCCCCC(=O)NO)C(=O)N1C`, the IC50 worked out at 4.43 µM with A549, 2.26 µM in the test on DU145 and 16 nM at HDAC1.

Regarding `O=C(CCCCCN1C(=O)N/C(=C\c2cccs2)C1=O)NO`, the IC50 in the test with A549 was determined as 4.86 µM; with DU145 it was 1.04 µM.

With `COc1cc(Br)ccc1/C=C1/C(=O)N(CCCCCCC(=O)NO)C(=O)N1C`, the half-maximal inhibitory concentration (IC50) was 5.13 µM in the test with A549 and 3.53 µM in the test on DU145.

In the case of `O=C(CCCCCN1C(=O)N/C(=C\c2ccc3c(c2)OCO3)C1=O)NO`, the IC50 on HDAC1 stood at 5.9 nM.

Consider `COc1cc(Br)ccc1/C=C1\NC(=O)N(CCCCCCCC(=O)NO)C1=O`, for which the IC50 is 7.6 µM in the test on A549, 1.65 µM in the test on DU145 and 7.8 nM on HDAC1.

Consider `COc1ccc(/C=C2\NC(=O)N(CCCCCC(=O)NO)C2=O)cc1`, for which the results for the half-inhibitory concentration (IC50) in the test on A549, in the test on DU145 and on HDAC1 were 1.49 µM, under 0.1 µM and 1 nM, respectively.

For `COc1cc(Br)ccc1/C=C1\NC(=O)N(CCCCCC(=O)NO)C1=O`, the IC50 in the test with A549 is 2.36 µM; with DU145, under 0.1 µM; at HDAC1, 0.57 nM. On HDAC1 (fold versus Vorinostat), the “inhibitory activity against HDAC1 relative to the positive control Vorinostat” value is 30 times.

With `COc1ccccc1/C=C1\NC(=O)N(CCCCCCCCC(=O)NO)C1=O`, the results for the IC50 in the test with DU145 and at HDAC1 were over 4 µM and 25 nM, respectively.

In the case of `COc1ccccc1/C=C1\NC(=O)N(CCCCCCCCCC(=O)NO)C1=O`, the IC50 was over 4 µM in the test with DU145 and 68 nM on HDAC1.

For the compound `COc1cc(Br)ccc1/C=C1\NC(=O)N(CCCCCCC(=O)NO)C1=O`, the results for the IC50 in the test on A549 and in the test on DU145 were 5.03 µM and over 4 µM, respectively.

With `COc1cc(C(F)(F)F)ccc1/C=C1\NC(=O)N(CCCCCC(=O)NO)C1=O`, the figures for the IC50 in the test with A549 and in the test with DU145 were 2.12 µM and under 0.1 µM, respectively.

Consider `O=C(CCCCCN1C(=O)N/C(=C\c2ccc3occc3c2)C1=O)NO`, for which the IC50 in the test with A549 was 4.43 µM; in the test with DU145 it was 0.34 µM.

`COc1cc(/C=C2\NC(=O)N(CCCCCC(=O)NO)C2=O)cc(OC)c1OC`: on HDAC1, the 50% inhibitory concentration (IC50) turned out to be 1.2 nM.

`COc1cc(F)ccc1/C=C1\NC(=O)N(CCCCCC(=O)NO)C1=O`: the figures for the IC50 in the test on A549 and in the test on DU145 were 4.86 µM and under 0.1 µM, respectively.

For the compound `COc1ccccc1/C=C1\NC(=O)N(CCCCCCC(=O)NO)C1=O`, the concentration for half-maximal inhibition (IC50) at HDAC1 was 8.6 nM and 6 nM.

For the compound `O=C(CCCCCN1C(=O)N/C(=C\c2ccc3c(c2)CCO3)C1=O)NO`, the values for the half-maximal inhibitory concentration (IC50) in the test with A549 and in the test on DU145 were 3.68 µM and under 0.1 µM, respectively.

Regarding `COc1cccc(/C=C2\NC(=O)N(CCCCCC(=O)NO)C2=O)c1`, the values for the IC50 in the test on A549, in the test with DU145 and at HDAC1 were 9.74 µM, under 0.1 µM and 1.7 nM, respectively.

Turning to `O=C(CCCCCN1C(=O)N/C(=C\c2cccc3ccccc23)C1=O)NO`, the figures for the half-maximal inhibitory concentration (IC50) with A549 and in the test with DU145 were 4.3 µM and 1.28 µM, respectively.

In the case of `COc1cc(C)ccc1/C=C1\NC(=O)N(CCCCCC(=O)NO)C1=O`, the half-maximal inhibitory concentration (IC50) with A549 was 2.04 µM; in the test on DU145, under 0.1 µM.

Regarding `COc1cc(Cl)ccc1/C=C1\NC(=O)N(CCCCCC(=O)NO)C1=O`, the IC50 with A549 was 2.42 µM; with DU145, under 0.1 µM.

With `COc1ccccc1/C=C1\NC(=O)N(CCCCC(=O)NO)C1=O`, the results for the concentration for half-maximal inhibition (IC50) in the test with A549, in the test on DU145 and at HDAC1 were 6.82 µM, over 4 µM and 76 nM, respectively.

Take `O=C(CCCCCN1C(=O)N/C(=C\c2cnc3ccccc3c2)C1=O)NO`: the values for the IC50 with DU145 and on HDAC1 were 3.43 µM and 2 nM, respectively.

For the compound `COc1ccc(/C=C2\NC(=O)N(CCCCCC(=O)NO)C2=O)c(OC)c1`, on HDAC1, the half-maximal inhibitory concentration (IC50) is 1.2 nM.

Consider `O=C(CCCCCN1C(=O)N/C(=C\c2ccc3ccccc3c2)C1=O)NO`, for which the half-inhibitory concentration (IC50) in the test with A549 stood at 3.68 µM; in the test on DU145 it was 0.77 µM; on HDAC1, 2.4 nM.

In the case of `COc1ccccc1/C=C1\NC(=O)N(CCCCCCCC(=O)NO)C1=O`, the IC50 in the test on A549 amounted to 9.7 µM; in the test with DU145, 1.45 µM.

With `COc1ccccc1/C=C1\NC(=O)N(CCCCCC(=O)NO)C1=O`, the values for the IC50 in the test with A549, in the test with DU145 and at HDAC1 were 7.94 µM, 0.26 µM and 2.8 nM, respectively.
